The test system of one test is HepG2. Put plainly: MTT test for inhibition of tumor cells, HepG2. It counts as cell-based. The following applies: read-out: IC50 HepG2, 48 h. The protocol: HepG2, HeLa cell lines and human normal liver cells HL-7702 in a logarithmic growth period were centrifuged at 1000 rpm for 5 min, and the supernatant was discarded, the cells were suspended with a suitable amount of culture medium to adjust the cell concentration to 3.5×10^4/well, the cells were seeded in 96-well plates, and the following experimental groups were set:
One negative control group; 28 test groups of the same concentration (i. e: Compound 1-28 groups); three control groups: podophyllotoxin group, 4 ? demethylepipodophyllotoxin group and etoposide group. […]
(Formazan colour is commonly taken as a measure of viable cells.)

The test system of another test is HeLa. Put plainly: MTT test for inhibition of tumor cells, HeLa. It counts as cell-based. The following applies: read-out: IC50 HeLa, 48 h.
The subject of test [1] is human normal hepatocytes HL-7702. The experiment in a line: MTT test on human normal hepatocytes HL-7702. The following applies: read-out: IC50 HL-7702; human normal hepatocytes HL-7702, MTT, 48 h.

What is called IC50 is the concentration needed to halve the response being measured. On to 4-Demethylepipodophyllotoxin, for which the figures for the 50% inhibitory concentration (IC50) (with HepG2; in the test with HeLa; in test [1]) were 49.3 µM, 63.1 µM and 52.9 µM, respectively.

Values taken from patent publication US11242354B2, “4-sulfur substituted podophyllotoxin derivative and preparation method therefor and use thereof” (priority 2017, dated 2022).
